Where “and” joins values, the source holds several entries; their conditions need not be identical. Equal values may be shown once. Read-outs that look alike come from different tables or passages of the source.
How the values were obtained:
healthy subjects [1] = system: healthy subjects
[2] = Plasma pharmacokinetics in thorough QT study; assay type: in vivo, human; settings: for Cmax, geometric mean: fasted; for Cmax, geometric mean / AUC0-inf, arithmetic mean / AUC0-inf, geometric mean / AUC0-t, arithmetic mean / AUC0-t, geometric mean / Cmax, arithmetic mean / t1/2, arithmetic mean / tmax, median: plasma, n = 39
[3] = human PK studies, oral; cited from earlier work
healthy subjects [4] = settings: for LS mean ΔPR: 0.5 hours after dosing; for Largest LS mean ΔΔQTcF: 2 hours after dosing; for Largest LS mean ΔHR: 6 hours after dosing
healthy subjects [5] = system: healthy subjects; remark: listed apart in the source
[6] = 36 mg versus 12 mg (3-fold increase in dose)
[7] = deucravacitinib 12 mg single oral dose
[8] = deucravacitinib 36 mg single oral dose
[9] = deucravacitinib 36 mg, 1 hour after dosing

Predicted ΔΔQTcF at observed geometric mean Cmax (healthy subjects [1]; deucravacitinib 36 mg, Cmax 315 ng/mL): 2.1 milliseconds
Intercept of concentration-ΔΔQTcF model (healthy subjects [1]; deucravacitinib 12 and 36 mg): 0.2 milliseconds and 0.19 milliseconds
Estimated population slope of concentration-ΔΔQTcF model (healthy subjects [1]; deucravacitinib 12 and 36 mg, plasma concentration): 0.0059 milliseconds per ng/mL
LS mean ΔPR (healthy subjects [4]; deucravacitinib 12 mg): 0.2 milliseconds
Largest LS mean ΔΔHR (healthy subjects [4]; deucravacitinib 12 mg, 1 hour after dosing): 0.6 bpm
Largest LS mean ΔΔQTcF (healthy subjects [4]; deucravacitinib 12 mg): 0.8 milliseconds
Largest LS mean ΔQTcF (healthy subjects [4]; deucravacitinib 12 mg, 3 hours after dosing): −1.7 milliseconds
Largest LS mean ΔHR (healthy subjects [4]; deucravacitinib 12 mg): 8.2 bpm
LS mean ΔQRS (healthy subjects [4]; deucravacitinib 12 mg, all time points): ≤ 0.1 milliseconds
LS mean ΔPR (healthy subjects [4]; deucravacitinib 36 mg): 0.2 milliseconds
Largest LS mean ΔQTcF (healthy subjects [4]; [9]): 0.2 milliseconds
Largest LS mean ΔΔHR (healthy subjects [4]; [9]): 4.0 bpm
Largest LS mean ΔΔQTcF (healthy subjects [4]; deucravacitinib 36 mg): 3.0 milliseconds
Largest LS mean ΔHR (healthy subjects [4]; deucravacitinib 36 mg): 8.7 bpm
LS mean ΔQRS (healthy subjects [4]; deucravacitinib 36 mg, all time points): ≤ 0.1 milliseconds
Upper bound of 2-sided 90%CI for ΔΔQTcF (healthy subjects [4]; deucravacitinib 12 and 36 mg, all time points): < 10 milliseconds
U-wave presence (healthy subjects [4]; during the study): No U‐wave observations
Frequencies of flat, notched, and biphasic T-wave morphologies (healthy subjects [4]; versus placebo): lower than or the same as for placebo
Subjects with moderate bilateral otitis externa considered related to study drug (healthy subjects [5]; deucravacitinib 36 mg): 1 subject
Substance: Deucravacitinib
Plasma concentration for which ΔΔQTcF exceeding 10 milliseconds was excluded (healthy subjects [1]; concentration-QTc analysis): at least 500 ng/mL
Increase in geometric mean AUC from time 0 extrapolated to infinite time [2, 6]: 3.4 fold
Increase in geometric mean Cmax [2, 6]: 3.4 fold
Cmax, geometric mean [2, 7]: 91.9 ng/mL
AUC0-inf, arithmetic mean [2, 7]: 946 ng·h/mL
AUC0-inf, geometric mean [2, 7]: 910 ng·h/mL
AUC0-t, arithmetic mean [2, 7]: 928 ng·h/mL
AUC0-t, geometric mean [2, 7]: 892 ng·h/mL
Cmax, arithmetic mean [2, 7]: 95.3 ng/mL
t1/2, arithmetic mean [2, 7]: 13.4 h
tmax, median [2, 7]: 2.60 h
Cmax, geometric mean [2, 8]: 315 ng/mL
AUC0-inf, arithmetic mean [2, 8]: 3201 ng·h/mL
AUC0-inf, geometric mean [2, 8]: 3084 ng·h/mL
AUC0-t, arithmetic mean [2, 8]: 3177 ng·h/mL
AUC0-t, geometric mean [2, 8]: 3060 ng·h/mL
Cmax, arithmetic mean [2, 8]: 324 ng/mL
t1/2, arithmetic mean [2, 8]: 13.0 h
tmax, median [2, 8]: 2.10 h
tmax ([2]; deucravacitinib 12 and 36 mg single oral dose): < 3 h
Absorption (near complete) [3]: 99%
tmax [3]: 1 h
Subjects with QTcF of >450 milliseconds or ΔQTcF of >30 milliseconds (healthy subjects [4]; any treatment, any time point): No subject
Clinically meaningful QTcF prolongation of >10 milliseconds (healthy subjects [4]; deucravacitinib at tested doses (12 and 36 mg)): not found
Subjects with AEs, number (healthy subjects [5]; deucravacitinib 12 mg): 5 subjects
Subjects with AEs, percentage (healthy subjects [5]; deucravacitinib 12 mg): 12.8%
Subjects with headache (most frequent AE), percentage (healthy subjects [5]; deucravacitinib 12 mg): 7.7%
Subjects with treatment-related AEs (healthy subjects [5]; deucravacitinib 12 mg): 4 subjects
Treatment-related AEs, number of AEs (healthy subjects [5]; deucravacitinib 12 mg): 8 AEs
SAEs considered related to the study drug (severe pharyngitis, lymphadenopathy, cellulitis) (healthy subjects [5]; deucravacitinib 12 mg, in 1 subject after fourth and final treatment): 3 SAEs
Subjects with AEs, number (healthy subjects [5]; deucravacitinib 36 mg): 8 subjects
Subjects with AEs, percentage (healthy subjects [5]; deucravacitinib 36 mg): 20.5%
Subjects with headache (most frequent AE), percentage (healthy subjects [5]; deucravacitinib 36 mg): 15.4%
Subjects with treatment-related AEs (healthy subjects [5]; deucravacitinib 36 mg): 7 subjects
Treatment-related AEs, number of AEs (healthy subjects [5]; deucravacitinib 36 mg): 9 AEs
Overall tolerability (healthy subjects [5]; single oral doses of 12 and 36 mg): generally well tolerated

From article PMC9306920 (Clinical Pharmacology in Drug Development, 2022)
